Experimental data taken from paper PMC11345818 (Journal of Medicinal Chemistry, 2024).
Where two headings read alike, the source gives them in different places.

Protein sequences, listed by entry. Tags and fused reporters are not part of them.
UniProt P08183, whole entry: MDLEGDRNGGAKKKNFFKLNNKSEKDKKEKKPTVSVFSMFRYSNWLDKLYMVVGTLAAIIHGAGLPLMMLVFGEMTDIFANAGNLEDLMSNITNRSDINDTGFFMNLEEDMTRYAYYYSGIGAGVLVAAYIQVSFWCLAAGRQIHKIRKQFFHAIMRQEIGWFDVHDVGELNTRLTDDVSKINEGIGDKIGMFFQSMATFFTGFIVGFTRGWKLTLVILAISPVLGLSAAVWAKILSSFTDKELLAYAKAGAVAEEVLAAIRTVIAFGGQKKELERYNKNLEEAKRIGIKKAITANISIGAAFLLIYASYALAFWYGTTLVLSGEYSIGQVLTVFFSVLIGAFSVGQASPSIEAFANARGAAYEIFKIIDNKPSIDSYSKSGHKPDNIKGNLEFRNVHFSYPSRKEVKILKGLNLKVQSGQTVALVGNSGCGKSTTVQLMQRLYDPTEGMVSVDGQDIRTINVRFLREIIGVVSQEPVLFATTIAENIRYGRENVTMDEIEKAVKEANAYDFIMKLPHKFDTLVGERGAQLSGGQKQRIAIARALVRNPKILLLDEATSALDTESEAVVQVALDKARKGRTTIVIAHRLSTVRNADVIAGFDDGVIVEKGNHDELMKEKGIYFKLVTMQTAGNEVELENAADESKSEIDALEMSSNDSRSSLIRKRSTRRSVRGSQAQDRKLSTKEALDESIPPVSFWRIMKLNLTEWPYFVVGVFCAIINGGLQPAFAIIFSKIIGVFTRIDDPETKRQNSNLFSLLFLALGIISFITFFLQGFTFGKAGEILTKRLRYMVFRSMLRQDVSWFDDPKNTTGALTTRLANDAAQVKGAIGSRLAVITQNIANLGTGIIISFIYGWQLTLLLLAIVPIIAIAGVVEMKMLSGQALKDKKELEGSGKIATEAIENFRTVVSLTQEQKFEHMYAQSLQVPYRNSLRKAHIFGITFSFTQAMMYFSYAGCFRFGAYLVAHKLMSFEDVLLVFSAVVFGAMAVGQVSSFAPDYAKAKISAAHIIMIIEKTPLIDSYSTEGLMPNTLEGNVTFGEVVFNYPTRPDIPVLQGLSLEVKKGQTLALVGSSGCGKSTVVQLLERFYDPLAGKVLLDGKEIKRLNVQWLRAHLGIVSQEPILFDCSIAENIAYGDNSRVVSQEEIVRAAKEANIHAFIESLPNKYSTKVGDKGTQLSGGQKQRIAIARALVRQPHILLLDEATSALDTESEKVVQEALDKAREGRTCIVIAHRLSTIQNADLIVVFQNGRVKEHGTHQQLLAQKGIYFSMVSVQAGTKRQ
UniProt P08684, whole entry: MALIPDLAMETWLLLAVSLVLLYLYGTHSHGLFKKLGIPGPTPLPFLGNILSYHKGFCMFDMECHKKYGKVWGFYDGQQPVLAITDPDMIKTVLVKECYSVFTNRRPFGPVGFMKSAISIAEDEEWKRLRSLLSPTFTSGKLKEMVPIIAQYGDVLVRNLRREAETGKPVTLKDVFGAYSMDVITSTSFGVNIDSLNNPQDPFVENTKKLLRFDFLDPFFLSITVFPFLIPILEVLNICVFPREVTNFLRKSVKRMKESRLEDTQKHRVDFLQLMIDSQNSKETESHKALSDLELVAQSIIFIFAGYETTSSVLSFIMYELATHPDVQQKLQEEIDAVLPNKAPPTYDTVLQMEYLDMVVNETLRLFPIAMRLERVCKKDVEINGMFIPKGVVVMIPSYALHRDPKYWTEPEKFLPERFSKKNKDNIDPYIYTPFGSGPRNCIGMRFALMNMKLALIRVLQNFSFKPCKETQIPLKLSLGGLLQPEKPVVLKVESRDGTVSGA

What was measured:
in vivo [1] = settings: male, Sprague Dawley, rat, iv
in vitro [2] = settings: rat, plasma, pH 7.4
in vitro [3] = settings: human, plasma, pH 7.4
[4] = male, Sprague Dawley, rat, in vivo, po, 10 mg/kg
P-gp = P-gp (Homo sapiens, UniProt P08183); settings: dog, MDCK-MDR1
in vitro [5] = settings: rhesus monkey, plasma, pH 7.4
[6] = brain:plasma ratio, IV
CYP3A4 = CYP3A4 (Homo sapiens, UniProt P08684)
in vitro [7] = settings: cynomolgus monkey, plasma, pH 7.4
in vitro [8] = settings: mouse, plasma, pH 7.4
in vivo [9] = settings: male, Sprague Dawley, rat, po, 10 mg/kg
in vitro [10] = settings: rat, brain homogenate, pH 7.4
in vitro [11] = settings: dog, plasma, pH 7.4
[12] = microsomes
in vitro [13] = settings: human, microsomes, pH 7.4
in vivo [14] = settings: male, Sprague Dawley, rat, brain, iv, 0.2 mg/kg

Cc1ncc(S(=O)(=O)N2CCC(c3cn4ncnc4cc3Cl)CC2)o1
MRT at 24 h (in vivo [1]; in vivo, 1 mg/kg): 1.3 h
Vd at 24 h (in vivo [1]; plasma, 1 mg/kg): 2.37 L/kg

Cc1ncc(S(=O)(=O)N2CCC(c3cn4ncnc4cc3Cl)CC2)s1
fraction unbound at 6 h, 5 µM (in vitro [2]): 0.09
fraction unbound (in vitro [3]): 0.2
Brain Unbound [4]: 17.4 nM
Plasma Unbound [4]: 26.9 nM
MRT at 24 h (in vivo [1]; in vivo, 1 mg/kg): 1.8 h
Vd at 24 h (in vivo [1]; plasma, 1 mg/kg): 1.68 L/kg
P-gp ER (P-gp): 1.49
fraction unbound (in vitro [5]): 0.13
Kp (rat) [6]: 0.75
Contribution (%) (CYP3A4): 96.9%
fraction unbound (in vitro [7]): 0.13
AUCinf,u (Sprague-Dawley, rat, in vivo, po, 10 mg/kg): 0.882 µM·h
AUCinf,u/Dose (Sprague-Dawley, rat, in vivo, po, 100 mg/kg): 29.4 nM·kg·h/mg
AUCinf,u/Dose (rat PO 3 mg/kg): 73.3 nM·kg·h/mg
AUCinf,u/Dose (rat PO 10 mg/kg): 88.2 nM·kg·h/mg
AUCinf,u/Dose (rat PO 30 mg/kg): 59.9 nM·kg·h/mg
Cmax,u (rat PO 100 mg/kg): 305 nM
fraction unbound (in vitro [8]): 0.16
bioavailability (in vivo [9]; in vivo): 68%
Tmax at 24 h (in vivo [9]; plasma): 0.75 h
fraction unbound (in vitro [10]): 0.16
fraction unbound (in vitro [11]): 0.2

O=S(=O)(c1cnc(CO)s1)N1CCC(c2cn3ncnc3cc2Cl)CC1
fraction unbound at 6 h, 5 µM (in vitro [2]): 0.12
fraction unbound at 6 h, 5 µM (in vitro [3]): 0.17
Predicted rat CLhep [12]: 16 mL/min/kg
AUC(0-inf) (in vivo [1]; in vivo): 276 ng·h/mL
MRT at 24 h (in vivo [1]; in vivo, 1 mg/kg): 1.49 h
clearance (in vivo [1]; plasma, 0.2 mg/kg): 12 mL/min/kg
Vd at 24 h (in vivo [1]; plasma, 1 mg/kg): 1.1 L/kg
half-life at 24 h (in vivo [1]; plasma, 1 mg/kg): 1.47 h
fraction unbound at 6 h, 5 µM (in vitro [10]): 0.16

[2H]C1([2H])CC(c2cn3ncnc3cc2Cl)CC([2H])([2H])N1S(=O)(=O)c1cnc(C)o1
Vd (in vivo [1]; in vivo): 1.3 L/kg

Cn1ncc(S(=O)(=O)N2CCC(c3cn4ncnc4cc3Cl)CC2)c1Cl
CLint scaled (in vitro [13]): 41.7 mL/min/kg
Kp at […] (in vivo [14]): 0.34
